# Reference: paper PMC9469208 (Journal of Medicinal Chemistry, 2022)
# Test system: PTZ-kindled mice
# Conditions: repeated injection, after kindling completion
structure (smiles),measurement,value
"CCCC(CCC)C(=O)O [VPA, valproic acid]","effect on spontaneous locomotor activity, anxiety- and depressive-like behavior",did not produce any significant effects
